Sampled rows, rich in hits. Any-hit rate of the full collection: about 2.4%.
ClpP mod – qHTS Assay for Activators of ClpP | 340,000 compounds, 1.9% hits | Potency, µM (top dose mostly 57.5 µM) | ATP-dependent Clp protease proteolytic subunit (Bacillus subtilis (strain 168)), P80244 | purified B. subtilis ClpP, FRET peptide cleavage, 20 min; active = well fitted falling curve with a large enough effect; inconclusive = small, poorly fitted or top-dose-only effect; inactive = no such curve, though single readings can be large or run the other way; note: the source files actives as falling curves though it sought activators and does not explain the sign; nearly all actives have a fitted effect of over 65% in size
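Purified B. subtilis ClpP, 10 microg/mL final in Tris/HCl pH8 with KCl, BSA, glycerol and Tween-20, cleaved an Abz/nitrotyrosine-quenched decapeptide. Fluorescence (ex 320, em 430) was read at 0 and 20 min at room temperature. Delta was normalized to 5.8 microM ADEP and DMSO/no-enzyme controls.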
TSG101-PTAP inh – blocks PTAP/TSG101 interaction to inhibit HIV-1 budding | Q99816 | Potency, µM (highest dose often 115 µM), actives largely listed as inhibitors | Fluorescence polarization, FITC-PTAP peptide / Tsg101 binding | 340,000 tested, under 10 active; active = well fitted inhibition curve with a large enough effect in the main read-out, with a control signal flat, not every such curve was filed as active; inconclusive = small, poorly fitted or top-dose-only effect, or effect the other way, or a change in a side signal; inactive = no such curve, though single readings can be large or run the other way
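Fluorescence polarization binding of Tsg101 binding domain (10 uM final) to FITC-labeled PTAP peptide (50 nM final) in HEPES pH 7.5 buffer with NaCl, Tween 20, EDTA, TCEP. Compounds added before peptide; binding 20 min at RT.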
TDP1 inh – TDP1 (human) enzyme inhibition; recombinant TDP1, AlphaScreen DNA substrate cleavage; Potency, µM (titrated, usually from 130 µM), actives largely listed as inhibitors; 350,000 compounds, 0.28% hits; active = well fitted curve in the direction sought with a large enough effect; inconclusive = small, poorly fitted or top-dose-only effect, or another doubt; inactive = no such curve, though single readings can be large; an effect the other way counts as inactive or inconclusive; note: nearly all actives have a fitted effect of over 40% in size
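Tdp1 1 nM final; 15 min RT w/ cpd; substrate 15 nM, 5 min; beads 10 ug/ml, 10 min; AlphaScreen read. Neg ctrl: no enzyme.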
Rango release inh – inhibition of RanGTP-driven Rango-importin beta dissociation; 340,000 compounds, 0.071% hits; O95149+P62826; Biochemical FRET Rango-importin beta, RanGTP-induced dissociation; Potency, µM (titrated, usually from 46.1 µM); note: nearly all actives have a fitted effect of over 45% in size
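Two FRET readings bracket the reaction: one 5 min after compound meets Rango–importin beta, another 45 min after RanGTP-RCC1 (0.6 uM Ran, 0.2 uM RCC1, 2 mM GTP) is added. Only the second defines inhibition.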
Rango-impB inh – prevents formation of the Rango-importin beta complex. Q14974. Rango CFP/YFP FRET sensor + importin beta, 45 min. Potency, µM (series often up to 92.2 µM). 340,000 compounds, 0.031% hits. AID 540263; note: nearly all actives have a fitted effect of over 15% in size
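FRET biosensor Rango (snurportin 1 IBB between N-terminal EYFP and C-terminal Cerulean), 50 nM in PBS/1 mM DTT/0.02% Tween-20/0.1% BSA, preincubated 5 min RT with compound; 0.125 microM importin beta added, 45 min RT, CFP/YFP FRET ratio read.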
ALOX12 inh – ALOX12 (human) lipoxygenase inhibition | 580,000 compounds, 1.1% hits | Potency, µM (titrated, usually from 108 µM), most hits filed as inhibitors | purified 12hLO, xylenol orange hydroperoxide absorbance | P18054; active = well fitted curve in the direction sought with a large enough effect; inconclusive = small, poorly fitted or top-dose-only effect, or another doubt; inactive = no such curve, though single readings can be large; an effect the other way counts as inactive or inconclusive
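Purified human 12hLO (150 nM final) in 25 mM Hepes, 0.01% Triton X-100, pH 7.0 was preincubated 15 min at room temperature with compound. Then 40 uM arachidonic acid was added, 30 min. Hydroperoxide was read by Fe-XO absorbance ratio 573/405 nm.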
A number is an active result; 0 = inactive; ? = inconclusive; - = no result given. Unless noted, calls come from the whole dose curve.

SMILES	ClpP mod	TSG101-PTAP inh	TDP1 inh	Rango release inh	Rango-impB inh	ALOX12 inh
C[C@]12CCCC3=CC(=O)C=CC31OCC2 (stereo partly specified)	-	-	-	-	-	0
CN(Cc1ccc(Cl)cc1Cl)C(=O)CN1C(=O)NC2(CCCC2)C1=O	25µM	0	0	0	0	0
O=C(CN1C(=O)NC2(CCCC2)C1=O)NCCc1ccc(Cl)cc1Cl	0	0	0	0	0	0
CN(CC(=O)N1CCN(CC(=O)Nc2cccc(F)c2)CC1)Cc1cnn(-c2ccccc2)c1	-	-	-	-	-	0
CN(c1ccc(-c2csc(NC3CCCC3)n2)cc1)S(C)(=O)=O	-	-	-	-	-	16µM
CS(=O)(=O)Nc1ccc(-c2csc(NC3CC3)n2)cc1	-	-	-	-	-	10µM
CN(c1ccc(-c2csc(NC(C)(C)C)n2)cc1)S(C)(=O)=O	-	-	-	-	-	0
COc1ccc(NC(=O)CCn2nc(-c3ccccc3)c3ccccc3c2=O)cc1C(N)=O	-	-	-	-	-	0
CCn1cc(CN2CCn3c(nnc3[C@@H]3C[C@@H](O)CN3Cc3cccnc3)C2)c(C)n1	-	-	-	-	-	0
CC1(Br)C(Sc2ccccc2[N+](=O)[O-])=Nc2ccccc21 (stereo unspecified)	0	-	-	-	-	7.9µM
COc1cccc(OC)c1C(=O)N1CCN(Cc2ccccc2C(F)(F)F)CC1	32µM	0	0	0	0	?
COc1cc(C(=O)N2CCN(Cc3ccccc3C(F)(F)F)CC2)cc(OC)c1OC	0	0	0	0	0	?
c1cncc(-c2noc(-c3cccc4ccccc34)n2)c1	35µM	0	0	0	0	0
Brc1ccc(-c2noc(-c3cccc4ccccc34)n2)cc1	-	-	-	-	-	0
c1ccc2c(-c3nc(-c4ccncc4)no3)cccc2c1	32µM	-	0	0	0	0
COC(=O)c1ccccc1NC(=O)Cc1nc(-c2ccc(OC)cc2)no1	28µM	-	0	-	-	0
CCOC(=O)c1ccccc1NC(=O)CCc1nc(-c2ccc(C)cc2)no1	?	-	0	-	-	0
O=S(=O)(O)c1cccc2c(N=Nc3ccc(O)c4ncccc34)cccc12	0	0	-	0	?	-
O=S(=O)(c1cc(O)ccc1O)c1cccc2c(S(=O)(=O)c3cc(O)ccc3O)cccc12	0	0	-	0	?	32µM
COc1ccc(-c2noc([C@@H]3C[C@@H](O)CN3Cc3ccc(CO)o3)n2)cc1	-	-	-	-	-	45µM
OCc1ccc(CN2C[C@H](O)C[C@H]2c2nc(-c3ccc(F)cc3)no2)o1	-	-	-	-	-	25µM
OCc1ccc(CN2C[C@H](O)C[C@H]2c2nc(-c3cccnc3)no2)o1	-	-	-	-	-	0
O[C@@H]1C[C@@H](c2nc(Cc3ccc(F)cc3Cl)no2)N(Cc2cc3ccccc3o2)C1	-	-	-	-	-	0
O[C@@H]1C[C@@H](c2nc(Cc3ccc(F)cc3Cl)no2)N(Cc2ccco2)C1	-	-	-	-	-	25µM
Cc1ccc(-c2noc([C@@H]3C[C@@H](O)CN3Cc3ccccc3O)n2)cc1F	-	-	-	-	-	32µM
SMILES	ClpP mod	TSG101-PTAP inh	TDP1 inh	Rango release inh	Rango-impB inh	ALOX12 inh
COC(=O)C1=C(C)N=C2SC=C(CC(=O)N3CCC(C)CC3)N2C1c1ccccc1Cl (stereo unspecified)	-	-	-	-	-	0
Cc1ccc(CNC(=O)NCCc2ncc(C)n2CC2CC2)cc1	-	-	-	-	-	0
Cc1ccc2oc(=O)cc(CN3CCN(CCc4ccncc4)CC3)c2c1	-	-	-	-	-	0
Nc1ccc(-c2cc3ccccc3[nH]2)cc1	0	-	-	-	-	-
Cc1ccc2[nH]c(-c3cccc(N)c3)cc2c1	16µM	0	0	0	0	0
Clc1ccc(N2CCN(Cc3ccc(Br)o3)CC2)cc1	-	0	-	0	0	0.89µM
O=C(NC1CCCCC1)C(c1ccc(-c2ccccc2)cc1)n1c(=O)c(-c2ccco2)nc2ccccc21 (stereo unspecified)	0	-	-	-	-	45µM
O=C(NCc1ccccc1)C(c1ccc(C(F)(F)F)cc1)n1c(=O)c(-c2ccco2)nc2ccccc21 (stereo unspecified)	0	-	-	-	-	5µM
O=C(NCc1ccccc1)C(c1ccccc1)n1c(=O)c(-c2ccco2)nc2ccccc21 (stereo unspecified)	0	-	-	-	-	?
CCCCCNC(=O)C(c1ccccc1F)n1c(=O)c(-c2ccco2)nc2ccccc21 (stereo unspecified)	?	-	-	-	-	20µM
CCCCCNC(=O)C(c1ccc(OC)cc1)n1c(=O)c(-c2ccco2)nc2ccccc21 (stereo unspecified)	0	-	-	-	-	5.6µM
CCCCCNC(=O)C(c1ccc(C#N)cc1)n1c(=O)c(-c2ccco2)nc2ccccc21 (stereo unspecified)	0	-	-	-	-	?
COc1ccc(C(=O)CSc2nnc(-c3cc4cc(Cl)ccc4o3)n2C)cc1	-	-	-	-	-	0
Cc1ccc(CN(C(=O)CCCc2cccs2)C2CC2)cc1	-	-	-	-	-	8.9µM
Cc1cc(N2CCCCC2)nc2ccccc12	-	0	0	0	0	0
Cc1cc(N2CCOCC2)nc2ccccc12	25µM	0	0	0	0	0
CC1CN(c2cc(-c3ccccc3)c3ccccc3n2)CC(C)O1 (stereo unspecified)	25µM	0	-	0	0	0
Cc1cc(N2CCOCC2)nc2cc(O)ccc12	0	0	0	16µM	?	0
COc1ccc2c(C)cc(SCC(=O)N3CCOCC3)nc2c1	0	0	0	0	33µM	?
Cc1ccc(C)c(NS(=O)(=O)c2cc(-c3cnc(C)o3)ccc2C)c1	-	-	-	-	-	0
COCC(=O)NC[C@H]1OC[C@@H](N(Cc2ccncc2)Cc2ccncc2)[C@@H]1O	-	-	-	-	-	0
CN(Cc1c(F)cccc1Cl)C(=O)CCNC(=O)Nc1ccccc1	-	-	-	-	-	0
COc1ccc(N2CCN(c3cc(C)c4ccc(C)cc4n3)CC2)cc1	0	0	0	0	0	0
Cc1cc(N2CCN(C)CC2)nc2ccc(NC(=O)Nc3ccc(Cl)cc3)cc12	0	-	0	-	-	?
Cc1cc(N2CCCN(C)CC2)nc2cc(Cl)ccc12	32µM	0	0	0	0	?
SMILES	ClpP mod	TSG101-PTAP inh	TDP1 inh	Rango release inh	Rango-impB inh	ALOX12 inh
COc1ccc2nc(N3CCOCC3)cc(C)c2c1	13µM	0	0	0	0	0
COc1ccc2c(C)cc(N3CCN(c4ccc(F)cc4)CC3)nc2c1	28µM	0	0	0	0	0
c1ccc(-c2cc(N3CCOCC3)nc3ccccc23)cc1	28µM	0	0	0	0	?
CCC(=O)N(C1CCOCC1)C1CCN(Cc2cc(F)c(F)c(F)c2)CC1	-	-	-	-	-	0
Fc1ccc(-c2cnc(CN3CCN(c4ccccc4)CC3)o2)cc1	-	-	-	-	-	0
N#Cc1ccc(CN2CCC3(CN[S+](=O)([O-])c4ccccc4N3)C2)cc1 (stereo unspecified)	-	-	-	-	-	0
Clc1ccc(/C=N\Nc2ccccc2)cc1	0	0	-	0	0	?

Screens: PubChem BioAssay, National Center for Advancing Translational Sciences (NCATS)
